The source of these data is ChEMBL document CHEMBL1132296, “Anticonvulsant and sodium channel-blocking properties of novel 10,11-dihydro-5H-dibenz[b,f]azepine-5-carboxamide derivatives” (J Med Chem, 1999).

Test [1] in a line: Protective index value of the compound, given by intraperitoneally (TD50/ED50). The format is functional.
The species named for the next test is Rattus norvegicus. The test can be described thus: Compound was tested for anticonvulsant activity against MES-induced seizures in rat. Set-up: concentration or dose not given beside the values.

In the case of `NC(=O)N1c2ccccc2CC(O)c2ccccc21` (stereo unspecified) [LICARBAZEPINE], the Protective index in test [1] is 6.1. Also, in the test filed under Rattus norvegicus, the Protection came to 45.2%.
For `NC(=O)N1c2ccccc2C[C@H](O)c2ccccc21` [ESLICARBAZEPINE], in that order: 5.6 and 42%.
As for `NC(=O)N1c2ccccc2C[C@@H](O)c2ccccc21`, in test [1], the Protective index is given as 5.4. In the test filed under Rattus norvegicus, this compound displayed a Protection of 22.5%.
